Results: patent US12202815B2 (dated 2025)
Like-named read-outs stand apart in the source and are kept apart here.

Assays:
AR = target: T1, AR (Rattus norvegicus, UniProt P15207); conditions: 20 mg/kg
T1 sequence (P15207 1-902): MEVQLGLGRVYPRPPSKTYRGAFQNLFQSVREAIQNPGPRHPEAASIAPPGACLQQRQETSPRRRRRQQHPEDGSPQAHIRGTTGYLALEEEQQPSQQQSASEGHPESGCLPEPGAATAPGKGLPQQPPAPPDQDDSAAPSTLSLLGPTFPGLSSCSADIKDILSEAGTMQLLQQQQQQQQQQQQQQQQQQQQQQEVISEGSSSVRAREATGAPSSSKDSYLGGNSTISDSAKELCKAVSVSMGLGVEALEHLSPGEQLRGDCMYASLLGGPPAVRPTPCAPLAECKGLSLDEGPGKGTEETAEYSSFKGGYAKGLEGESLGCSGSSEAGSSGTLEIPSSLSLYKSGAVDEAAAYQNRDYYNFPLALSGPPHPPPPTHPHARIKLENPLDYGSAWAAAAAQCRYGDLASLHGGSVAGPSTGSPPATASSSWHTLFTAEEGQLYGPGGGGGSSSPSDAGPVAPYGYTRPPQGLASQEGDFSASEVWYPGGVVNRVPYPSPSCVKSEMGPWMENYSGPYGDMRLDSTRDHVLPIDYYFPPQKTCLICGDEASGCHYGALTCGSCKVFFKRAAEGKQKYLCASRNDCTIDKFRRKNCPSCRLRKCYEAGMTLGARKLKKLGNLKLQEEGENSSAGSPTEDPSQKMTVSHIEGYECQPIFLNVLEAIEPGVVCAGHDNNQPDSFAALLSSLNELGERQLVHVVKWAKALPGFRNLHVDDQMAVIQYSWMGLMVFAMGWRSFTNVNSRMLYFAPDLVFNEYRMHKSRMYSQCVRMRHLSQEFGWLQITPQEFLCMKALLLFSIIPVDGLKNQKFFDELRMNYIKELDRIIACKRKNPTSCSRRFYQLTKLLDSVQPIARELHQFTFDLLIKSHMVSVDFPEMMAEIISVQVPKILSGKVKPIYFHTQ

full length AR = assay: LNCaP or AD1 degradation (AR FL), Western blot; format: cell-based; conditions: Table 3

C[C@](O)(Cn1cc(Cl)cn1)C(=O)Nc1ccc(C#N)c(C(F)(F)F)c1 [Compound 1049]
Serum Conc. (Table 3, 20 mg/kg Hershberger): 125 nM

C[C@](O)(Cn1ccc2cc(F)ccc21)C(=O)Nc1ccc(C#N)c(C(F)(F)F)c1 [Compound 11]
(Prostate) % diff (AR; prostate weight vs intact vehicle treated rats): −19%
(S.V.) % diff (AR; seminal vesicles weight vs intact vehicle treated rats): −12%

C[C@](O)(Cn1cc(F)cn1)C(=O)Nc1ccc(C#N)c(C(F)(F)F)c1
Serum Conc. (Table 2, rats 20 mg/kg, 24-30 hours after last dose): 33 nM

C[C@](O)(Cn1cc(-c2ccc(F)cc2)nn1)C(=O)Nc1ccc(C#N)c(C(F)(F)F)c1 [Compound 1045]
Degradation (% at 3 μM) (full length AR): 47%
Serum Conc. (Table 3, 20 mg/kg Hershberger): 1209 nM
